The list shows a part of the results, in another mix than the full data. Some results for these compounds are left out of this collection, so the calls shown say nothing about other tests. The source made the active and inactive calls. The call rests on the fitted dose curve; in most records, active means well fitted activation curve with a large enough effect; inconclusive means small, poorly fitted or top-dose-only effect; inactive means flat fitted curve, though single readings scatter.

A short description of this experiment: qHTS of alpha-syn Inhibitors: NCGC Sytravon Library Screen. Further: 0% is about no effect. The following applies: S. cerevisiae alpha-synuclein toxicity rescue, BacTiter-Glo growth, 24 h; at 46.1 µM (top of the series). The text has this: The goal of this project is to identify new chemical probes capable of reversing the toxicity associated with the Parkinson disease-related protein, alpha-synuclein. Compounds will be selected on their ability to restore growth in yeast cells expressing toxic levels of alpha-synuclein. These compounds will provide a complementary approach to deciphering the tangled mechanisms of toxicity and protection that we have uncovered through genome-wide genetic screens and are beginning to uncover in a large-scale proteomics analysis with mass spectroscopy. To this end, a miniaturized assay was developed to be screened against the Molecular Libraries Small Molecule Repository (MLSMR) to discover alpha-synuclein inhibitors. […] The phenotype of interest will be that of an Activator and this screen is run against the NCGC Sytravon Library collection. NIH Chemical Genomics Center [NCGC] NIH Molecular Libraries Probe Centers Network [MLPCN] MLPCN Grant: NS060957 Assay Submitter (PI): Susan Lindquist, Whitehead Institute/MIT
Dispense 2.5 microL yeast galactose medium per 1536-well plate, pin compound, dispense 2.5 microL alpha-synuclein expressing yeast in galactose medium at OD600=0.02 (pregrown in raffinose medium to mid-log phase) per well, incubate for 24 hr at 30 deg C, and cell growth will be measured using 5 microL of Bactiter/Glo reagent to entire plate and read using Luminescence Protocol in ViewLux.
With `O=C(NCC1(N2CCCCC2)CCCCC1)c1cccc(Br)c1`, the growth rescue (activation) was inactive: 9.06%.

As to `Cc1cc(C(=O)NCC2(N3CCCCC3)CCCCC2)ccc1[N+](=O)[O-]`, the growth rescue (activation) is inactive: -1.89%.

With `CCOc1cccc(C(=O)NCC2(N(C)C)CCCCC2)c1`, the growth rescue (activation) was inactive: 3.9%.

`CN(C)C1(CNC(=O)c2ccccc2[N+](=O)[O-])CCCCC1`: the growth rescue (activation) is inactive: -2.13%.

Take `CCCCOc1ccccc1C(=O)NCC1(N(C)C)CCCCC1`: the growth rescue (activation) is inactive: -29.3%.

`CN(C)C1(CNC(=O)c2cccc(Cl)c2)CCCCC1`: the growth rescue (activation) is inactive: 3.74%.

For the molecule `CCN(CC)CC(C)C(C)OC(=O)C(O)(c1ccccc1)c1ccccc1` (configuration not stated), the growth rescue (activation) was inactive: -1.13%.

Consider `CN(C)C1(CNC(=O)c2ccccc2F)CCCCC1`, for which the growth rescue (activation) is inactive: -10.7%.

As to `Cc1ccc(C(=O)NCC2(N3CCCCC3)CCCCC2)cc1`, the growth rescue (activation) was inactive: -5.65%.

Take `COc1cc(C(=O)NCC2(N(C)C)CCCCC2)cc(OC)c1OC`: the growth rescue (activation) is inactive: 2.4%.

`Cc1cccc(C(=O)NCC2(N(C)C)CCCCC2)c1`: the growth rescue (activation) was inactive: 1.03%.

As for `C=C(C)C#CC(O)(C(=O)OC1CCN(C)CC1)c1ccccc1` (configuration not stated), the growth rescue (activation) is inactive: -5.35%.

In the case of `CC(C)Oc1ccc(C(=O)NCC2(N(C)C)CCCCC2)cc1`, the growth rescue (activation) was inactive: 0.371%.

`COc1cccc(C(=O)NCC2(N3CCOCC3)CCCCC2)c1`: the growth rescue (activation) is inactive: -9.71%.

Take `CC(C)COc1ccc(C(=O)NCC2(N(C)C)CCCCC2)cc1`: the growth rescue (activation) is inactive: -51.1%.

With `COc1ccc(C(=O)NCC2(N(C)C)CCCCC2)cc1Cl`, the growth rescue (activation) was inactive: 0.446%.

In the case of `CN(C)C1(CNC(=O)c2ccc(Br)cc2)CCCCC1`, the growth rescue (activation) is inactive: -6.38%.

Values taken from PubChem BioAssay AID1347070 (National Center for Advancing Translational Sciences (NCATS), 2019).
